Test results published in patent publication US5587392A, “Azolyl methyl phenyl derivatives having aromatase inhibitory activity” (Mochida Pharmaceutical Co., Ltd., priority 1994, dated 1996).

System: plasma estradiol
Assay: Decreasing activity on blood estrogen (plasma estradiol, PMSG-treated rats)
Type: in vivo, female SD rats
Details: Rattus norvegicus, po, 4 h, read-out: Ratio in plasma estradiol decrease
Description: More specifically, pregnant mare serum gonadotropin (PMSG) was subcutaneously administered to female SD rats aged 3 weeks, at a dose of 200 IU/rat. […] Four hours after the dosing of the test compound, blood was sampled, and plasma estradiol was messuered by radioimmunoassay(RIA). The decreasing ratio (%) in plasma estradiol levels was calculated by comparing with control groups.

Which results are given for N#Cc1ccc(C2CCCc3cncn32)cc1 (stereo not drawn) [CGS 16949A, 5-(p-cyanophenyl)-5,6,7,8-tetrahydroimidazo[1,5-a]pyridine]?
inhibition in vivo at 0.001 mg/kg: 44%; inhibition in vivo at 0.01 mg/kg: 81%; inhibition in vivo at 0.1 mg/kg: 94%
